# Test results reported in PubChem BioAssay AID1671202 (University of Kansas High Throughput Screening Laboratory, 2021).
# Sequences of proteins named here, by UniProt entry; tags and fusion partners are left off.
# UniProt P42858, whole entry, looked up, stated change not applied: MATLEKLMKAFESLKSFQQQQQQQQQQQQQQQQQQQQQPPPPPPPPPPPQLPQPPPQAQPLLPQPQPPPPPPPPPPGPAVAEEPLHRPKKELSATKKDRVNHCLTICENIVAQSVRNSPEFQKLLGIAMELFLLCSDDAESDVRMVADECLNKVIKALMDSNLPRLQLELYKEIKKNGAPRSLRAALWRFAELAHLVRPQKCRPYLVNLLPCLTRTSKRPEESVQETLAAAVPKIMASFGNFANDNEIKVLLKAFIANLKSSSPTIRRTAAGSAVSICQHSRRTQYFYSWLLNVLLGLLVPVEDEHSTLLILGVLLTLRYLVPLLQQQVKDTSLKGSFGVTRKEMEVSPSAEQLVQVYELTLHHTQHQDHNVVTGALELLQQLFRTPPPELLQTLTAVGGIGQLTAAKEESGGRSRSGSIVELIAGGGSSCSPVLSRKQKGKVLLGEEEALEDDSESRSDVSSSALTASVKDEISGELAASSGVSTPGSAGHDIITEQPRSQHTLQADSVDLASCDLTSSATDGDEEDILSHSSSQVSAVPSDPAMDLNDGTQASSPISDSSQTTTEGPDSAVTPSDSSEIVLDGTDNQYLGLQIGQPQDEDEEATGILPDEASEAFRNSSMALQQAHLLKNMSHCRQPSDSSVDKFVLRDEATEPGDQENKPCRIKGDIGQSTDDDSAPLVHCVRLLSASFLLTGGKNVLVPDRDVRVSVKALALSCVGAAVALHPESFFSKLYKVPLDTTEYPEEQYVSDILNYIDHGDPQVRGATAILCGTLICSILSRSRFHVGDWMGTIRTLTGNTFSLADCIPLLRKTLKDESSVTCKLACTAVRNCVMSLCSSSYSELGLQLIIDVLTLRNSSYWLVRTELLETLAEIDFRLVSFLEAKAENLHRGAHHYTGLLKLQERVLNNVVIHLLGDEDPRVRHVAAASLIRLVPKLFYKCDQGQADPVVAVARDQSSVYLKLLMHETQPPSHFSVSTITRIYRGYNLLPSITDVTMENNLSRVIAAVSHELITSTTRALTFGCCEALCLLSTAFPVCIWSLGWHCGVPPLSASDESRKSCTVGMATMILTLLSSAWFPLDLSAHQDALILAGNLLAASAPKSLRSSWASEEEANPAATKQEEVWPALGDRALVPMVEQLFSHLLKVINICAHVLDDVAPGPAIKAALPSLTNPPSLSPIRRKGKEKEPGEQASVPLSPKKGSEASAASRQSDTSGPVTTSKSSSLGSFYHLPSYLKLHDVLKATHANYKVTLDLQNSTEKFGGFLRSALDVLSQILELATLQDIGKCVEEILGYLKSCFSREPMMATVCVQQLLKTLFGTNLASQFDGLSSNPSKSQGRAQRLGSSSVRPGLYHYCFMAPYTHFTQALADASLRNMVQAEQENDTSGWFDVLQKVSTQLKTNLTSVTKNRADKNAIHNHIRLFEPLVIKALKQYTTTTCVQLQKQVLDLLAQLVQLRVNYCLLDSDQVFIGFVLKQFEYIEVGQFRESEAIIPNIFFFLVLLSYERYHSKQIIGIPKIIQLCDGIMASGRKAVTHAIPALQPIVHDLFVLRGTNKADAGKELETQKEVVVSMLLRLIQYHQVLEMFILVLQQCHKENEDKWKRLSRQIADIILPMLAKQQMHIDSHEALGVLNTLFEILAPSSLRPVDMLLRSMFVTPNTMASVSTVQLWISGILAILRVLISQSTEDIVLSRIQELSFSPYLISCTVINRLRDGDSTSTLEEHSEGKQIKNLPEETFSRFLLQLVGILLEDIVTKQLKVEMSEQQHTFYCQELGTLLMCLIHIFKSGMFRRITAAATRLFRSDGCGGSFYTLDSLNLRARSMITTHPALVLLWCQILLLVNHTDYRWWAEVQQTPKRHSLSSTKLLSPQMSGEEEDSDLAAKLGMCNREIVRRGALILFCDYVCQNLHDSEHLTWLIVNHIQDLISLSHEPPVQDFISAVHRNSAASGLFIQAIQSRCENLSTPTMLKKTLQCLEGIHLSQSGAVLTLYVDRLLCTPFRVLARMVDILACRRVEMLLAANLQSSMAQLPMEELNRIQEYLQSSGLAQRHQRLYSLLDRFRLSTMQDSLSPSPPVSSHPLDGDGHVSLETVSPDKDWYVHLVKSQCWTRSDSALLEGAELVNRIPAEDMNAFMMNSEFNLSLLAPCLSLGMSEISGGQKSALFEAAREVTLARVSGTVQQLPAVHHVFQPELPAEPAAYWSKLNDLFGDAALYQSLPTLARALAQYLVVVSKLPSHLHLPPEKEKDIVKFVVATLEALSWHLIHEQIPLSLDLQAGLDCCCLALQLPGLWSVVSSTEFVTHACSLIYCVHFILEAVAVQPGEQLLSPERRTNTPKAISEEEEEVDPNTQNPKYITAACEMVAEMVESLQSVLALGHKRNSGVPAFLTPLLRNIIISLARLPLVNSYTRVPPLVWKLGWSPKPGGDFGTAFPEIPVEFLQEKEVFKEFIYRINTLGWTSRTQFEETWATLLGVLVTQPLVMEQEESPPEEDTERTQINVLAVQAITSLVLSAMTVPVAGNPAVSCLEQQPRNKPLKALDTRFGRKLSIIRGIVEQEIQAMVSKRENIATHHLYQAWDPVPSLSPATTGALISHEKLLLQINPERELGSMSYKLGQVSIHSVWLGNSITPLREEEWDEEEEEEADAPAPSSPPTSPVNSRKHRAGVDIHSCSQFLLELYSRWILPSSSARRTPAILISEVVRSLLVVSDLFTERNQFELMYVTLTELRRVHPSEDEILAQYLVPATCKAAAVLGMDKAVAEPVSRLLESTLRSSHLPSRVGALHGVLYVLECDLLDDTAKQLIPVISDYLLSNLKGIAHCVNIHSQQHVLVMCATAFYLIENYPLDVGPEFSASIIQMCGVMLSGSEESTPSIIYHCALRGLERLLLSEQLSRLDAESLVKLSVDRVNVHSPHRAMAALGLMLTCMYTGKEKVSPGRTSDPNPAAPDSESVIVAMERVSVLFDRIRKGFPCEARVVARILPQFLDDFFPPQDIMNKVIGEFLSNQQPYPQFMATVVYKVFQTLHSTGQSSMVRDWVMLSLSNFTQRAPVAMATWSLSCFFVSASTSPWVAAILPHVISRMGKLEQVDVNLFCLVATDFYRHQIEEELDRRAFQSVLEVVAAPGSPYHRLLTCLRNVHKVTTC
# This is a selection; strong and weak results do not stand in their true shares. The source made the active and inactive calls. Cut-off read from the data, not from the text of the source: active = inhibition above about 50%; inactive = the rest.
# Target: Huntingtin (Homo sapiens) (UniProt P42858)
# Experiment: mutant huntingtin-calmodulin interaction inhibitors – biochemical, AlphaScreen, primary screen (AID 1671202);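 note: 0% = both proteins with DMSO and 100% = one protein alone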
# Conditions: AlphaScreen His-mHTT/GST-CaM binding, luminescence; at 15 µM; active compounds read high
row,Compound,inhibition
1,O=[N+]([O-])c1ccc(NCCNc2ccc([N+](=O)[O-])cc2[N+](=O)[O-])c([N+](=O)[O-])c1,inactive: -6.49%
2,Cc1ccc(C(=O)NC(SC2=NCCS2)C(Cl)(Cl)Cl)cc1 (stereo not drawn),inactive: -5%
3,COc1cc(NC(=O)Cn2nc([N+](=O)[O-])c([N+](=O)[O-])c2C)cc([N+](=O)[O-])c1,inactive: 13%
4,Nc1nonc1OCc1nonc1COc1nonc1N,inactive: -4%
5,O=C(NC(SC1=NCCS1)C(Cl)(Cl)Cl)c1ccc([N+](=O)[O-])cc1 (stereo not drawn),inactive: 11%
6,O=C(c1cc([N+](=O)[O-])c(Cl)c([N+](=O)[O-])c1)c1cc([N+](=O)[O-])c(Cl)c([N+](=O)[O-])c1,active: 100%
7,O=C(NC(Sc1ccc(Cl)cc1)C(Cl)(Cl)Cl)c1ccco1 (stereo not drawn),inactive: -24%
8,COc1ccccc1OP(=O)(Nc1ccccn1)Oc1ccccc1OC,inactive: 1%
9,O=[N+]([O-])c1ccc(-n2ncc3c([N+](=O)[O-])cc([N+](=O)[O-])cc32)cc1,inactive: 26%
10,O=[N+]([O-])c1ccc(Nc2ccc(Nc3ccc([N+](=O)[O-])cc3[N+](=O)[O-])cc2)c([N+](=O)[O-])c1,inactive: 22.9%
11,Cc1c([N+](=O)[O-])c([N+](=O)[O-])nn1CC(=O)Nc1ccc([N+](=O)[O-])cc1Cl,inactive: 10%
12,O=C(NC1CCS(=O)(=O)C1)NP(=S)(Oc1ccccc1)Oc1ccccc1 (stereo not drawn),inactive: -5%
13,Cc1c(N=Cc2ccc([N+](=O)[O-])s2)cc([N+](=O)[O-])cc1[N+](=O)[O-],inactive: 34%
14,CCOP(=Nc1nc2ccccc2n2nnnc12)(OCC)OCC,inactive: -2%
15,COc1cc(Br)c([N+](=O)[O-])nc1[N+](=O)[O-],inactive: 36%
16,O=C1CCC([N+](=O)[O-])([N+](=O)[O-])CN1CCCCN1CC([N+](=O)[O-])([N+](=O)[O-])CCC1=O,inactive: 1%
17,Cc1cc(SC(NC(=O)C(C)(C)C)C(Cl)(Cl)Cl)ncn1 (stereo not drawn),active: 99%
18,O=C(Nc1nnc(N=Cc2ccc([N+](=O)[O-])s2)s1)c1ccc([N+](=O)[O-])cc1[N+](=O)[O-],inactive: 7%
19,O=[N+]([O-])c1cccc2n[nH]nc12,inactive: -3.4%
20,CC(=O)NC(Sc1ccc(Cl)cc1)C(Cl)(Cl)Cl (stereo not drawn),inactive: -4%
21,N=C(N)SCC(Br)CN1C(=O)c2ccccc2C1=O (stereo not drawn),inactive: -7%
22,CC(C)(c1cc([N+](=O)[O-])c(O)c([N+](=O)[O-])c1)c1cc([N+](=O)[O-])c(O)c([N+](=O)[O-])c1,inactive: 28%
23,C1CN(c2nonc2-[n+]2nc3nonc3[n-]2)CCO1,inactive: 8.1%
24,CN1C(=O)C2C(NC(=NCCN3CCOCC3)N2C)N(C)C1=O (stereo not drawn),inactive: 0%

row,Compound,inhibition
1,Clc1n[nH]nc1-c1nn[nH]n1,inactive: 0.62%
2,O=C(NC(Sc1ncccn1)C(Cl)(Cl)Cl)c1ccccc1 (stereo not drawn),active: 80%
3,O=[N+]([O-])c1cc2c(c([N+](=O)[O-])c1)-c1c(cc([N+](=O)[O-])cc1[N+](=O)[O-])C2=Cc1ccccc1O,active: 91%
4,CC1C(=O)OC(C(Cl)(Cl)Cl)N1C(O)C(Cl)(Cl)Cl (stereo not drawn),inactive: -4%
5,O=C(NC(Nc1cccc([N+](=O)[O-])c1)C(Cl)(Cl)Cl)c1cc([N+](=O)[O-])cc([N+](=O)[O-])c1 (stereo not drawn),active: 74%
6,O=C(Nc1nnc(N=Cc2ccc([N+](=O)[O-])s2)s1)c1cc([N+](=O)[O-])cc([N+](=O)[O-])c1,inactive: -4%
7,COC(=O)c1cc([N+](=O)[O-])[nH]n1,inactive: -5.02%
8,O=[N+]([O-])c1cc(S(=O)(=O)c2cc([N+](=O)[O-])c(O)c([N+](=O)[O-])c2)cc([N+](=O)[O-])c1O,inactive: 1%
9,Cc1nc2c(C)cccc2c2c1CC(C(Cl)Cl)S2 (stereo not drawn),inactive: -65%
10,O=[N+]([O-])c1ccc(-n2ncc3ccc([N+](=O)[O-])cc32)c([N+](=O)[O-])c1,inactive: 5%
11,COc1ccc(N=Cc2c([N+](=O)[O-])cc([N+](=O)[O-])cc2[N+](=O)[O-])cc1,inactive: 28%
12,Nc1nonc1OCCOc1nonc1N,inactive: -5.2%
13,O=C(Cn1cnc([N+](=O)[O-])n1)NCCO[N+](=O)[O-],inactive: 0%
14,O=[N+]([O-])c1ccc(Oc2c([N+](=O)[O-])cc(C(F)(F)F)cc2[N+](=O)[O-])cc1,active: 70%
15,Cc1ccc(S(=O)(=O)N2CC(=O)SC2C(Cl)(Cl)Cl)cc1 (stereo not drawn),inactive: -7%
16,O=P(Nc1nccs1)(Oc1ccccc1)Oc1ccccc1,inactive: -1%
17,CN(C)C(=O)NC(SC1=NCCS1)C(Cl)(Cl)Cl (stereo not drawn),inactive: -2%
18,O=C(NC(Nc1ccc([N+](=O)[O-])cc1)C(Cl)(Cl)Cl)c1cc([N+](=O)[O-])cc([N+](=O)[O-])c1 (stereo not drawn),active: 98%
19,Cc1cc(C)nc(SC(NC(=O)c2ccccc2)C(Cl)(Cl)Cl)n1 (stereo not drawn),active: 54%
20,O=[N+]([O-])c1ccc(C(O)CNc2c([N+](=O)[O-])cc(C(F)(F)F)cc2[N+](=O)[O-])cc1 (stereo not drawn),active: 63%
21,COc1cccc(OP(=O)(Nc2ccccn2)Oc2cccc(OC)c2)c1,inactive: 0%
22,Cc1c(N=Cc2ccc([N+](=O)[O-])cc2)cc([N+](=O)[O-])cc1[N+](=O)[O-],inactive: 13%
23,CC1(C)SC2N(C(=O)C2(Br)Br)C1C(=O)O (stereo not drawn),inactive: 1%
24,CN1CC(=O)NC1=NP(=O)(OCc1ccccc1)OCc1ccccc1,inactive: -1%
